According to PubChem BioAssay (NCI):
Some of these compounds have results that are not shown, active ones among them.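 These data come from cells grown in 96-well plates and exposed to compound for 48 hours at five concentrations. At the GI50, growth is halved. TGI marks complete inhibition of growth.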

What was measured:
Assay in all cases: NCI anticancer screen, dose series, 48 h; in the data active means GI50 below about 0.43 µM; inactive means the rest
786-0 renal = test system: 786-0 renal
SF-268 CNS = test system: SF-268 CNS
MDA-MB-231 breast = test system: MDA-MB-231 breast
KM12 colon = test system: KM12 colon
U251 CNS = test system: U251 CNS
PC-3 prostate = test system: PC-3 prostate
UACC-257 melanoma = test system: UACC-257 melanoma
SK-MEL-28 melanoma = test system: SK-MEL-28 melanoma
SN12C renal = test system: SN12C renal
SK-OV-3 ovarian = test system: SK-OV-3 ovarian
SW-620 colon = test system: SW-620 colon
OVCAR-4 ovarian = test system: OVCAR-4 ovarian
SK-MEL-5 melanoma = test system: SK-MEL-5 melanoma
OVCAR-5 ovarian = test system: OVCAR-5 ovarian
HCC-2998 colon = test system: HCC-2998 colon
NCI-H23 lung = test system: NCI-H23 lung
SF-539 CNS = test system: SF-539 CNS
UACC-62 melanoma = test system: UACC-62 melanoma
HS 578T breast = test system: HS 578T breast
NCI-H460 lung = test system: NCI-H460 lung
HT29 colon = test system: HT29 colon
HCT-116 colon = test system: HCT-116 colon
EKVX NSCLC = test system: EKVX NSCLC
LOX IMVI melanoma = test system: LOX IMVI melanoma
HL-60(TB) leukemia = test system: HL-60(TB) leukemia
MOLT-4 leukemia = test system: MOLT-4 leukemia
SF-295 CNS = test system: SF-295 CNS
TK-10 renal = test system: TK-10 renal
SNB-75 CNS = test system: SNB-75 CNS
T-47D breast = test system: T-47D breast
M14 melanoma = test system: M14 melanoma
RPMI-8226 leukemia = test system: RPMI-8226 leukemia
BT-549 breast = test system: BT-549 breast
OVCAR-3 ovarian = test system: OVCAR-3 ovarian
DU-145 prostate = test system: DU-145 prostate
IGROV1 ovarian = test system: IGROV1 ovarian
SNB-19 CNS = test system: SNB-19 CNS
HCT-15 colon = test system: HCT-15 colon
A498 renal = test system: A498 renal
K-562 leukemia = test system: K-562 leukemia
CAKI-1 renal = test system: CAKI-1 renal
MCF7 breast = test system: MCF7 breast
MDA-MB-435 = test system: MDA-MB-435
A549 NSCLC = test system: A549 NSCLC
NCI-H522 lung = test system: NCI-H522 lung
NCI/ADR-RES ovarian = test system: NCI/ADR-RES ovarian
COLO 205 colon = test system: COLO 205 colon
CCRF-CEM leukemia = test system: CCRF-CEM leukemia
UO-31 renal = test system: UO-31 renal
MDA-N = test system: MDA-N
MALME-3M melanoma = test system: MALME-3M melanoma
OVCAR-8 ovarian = test system: OVCAR-8 ovarian
ACHN renal = test system: ACHN renal
SK-MEL-2 melanoma = test system: SK-MEL-2 melanoma
HOP-62 NSCLC = test system: HOP-62 NSCLC
NCI-H226 lung = test system: NCI-H226 lung

C=C(C)C#CC(O)(C(=O)OC1CCN(C)CC1)C1CCCC1 (configuration not stated)
> 100 µM: TGI (786-0 renal) | TGI (SF-268 CNS) | TGI (MDA-MB-231 breast) | TGI (KM12 colon) | TGI (U251 CNS) | TGI (PC-3 prostate) | TGI (UACC-257 melanoma) | TGI (SK-MEL-28 melanoma) | TGI (SN12C renal) | TGI (SK-OV-3 ovarian) | TGI (SW-620 colon) | TGI (OVCAR-4 ovarian) | TGI (SK-MEL-5 melanoma) | TGI (OVCAR-5 ovarian) | TGI (HCC-2998 colon) | TGI (NCI-H23 lung) | TGI (SF-539 CNS) | TGI (UACC-62 melanoma) | TGI (HS 578T breast) | TGI (NCI-H460 lung) | TGI (HT29 colon) | TGI (HCT-116 colon) | TGI (EKVX NSCLC) | TGI (LOX IMVI melanoma) | TGI (HL-60(TB) leukemia) | TGI (MOLT-4 leukemia) | TGI (SF-295 CNS) | TGI (TK-10 renal) | TGI (SNB-75 CNS) | TGI (T-47D breast) | TGI (M14 melanoma) | TGI (RPMI-8226 leukemia) | TGI (BT-549 breast) | TGI (OVCAR-3 ovarian) | TGI (DU-145 prostate) | TGI (IGROV1 ovarian) | TGI (SNB-19 CNS) | TGI (HCT-15 colon) | TGI (A498 renal) | TGI (K-562 leukemia) | TGI (CAKI-1 renal) | TGI (MCF7 breast) | TGI (MDA-MB-435) | TGI (A549 NSCLC) | TGI (NCI-H522 lung) | TGI (NCI/ADR-RES ovarian) | TGI (COLO 205 colon) | TGI (CCRF-CEM leukemia) | TGI (UO-31 renal) | TGI (MDA-N) | TGI (MALME-3M melanoma) | TGI (OVCAR-8 ovarian) | TGI (ACHN renal) | TGI (SK-MEL-2 melanoma) | TGI (HOP-62 NSCLC) | TGI (NCI-H226 lung)
inactive: GI50 (786-0 renal) > 100 µM | GI50 (SF-268 CNS) > 100 µM | GI50 (MDA-MB-231 breast) > 100 µM | GI50 (KM12 colon) > 100 µM | GI50 (U251 CNS) > 100 µM | GI50 (PC-3 prostate) 36.4 µM | GI50 (UACC-257 melanoma) 57.2 µM | GI50 (SK-MEL-28 melanoma) > 100 µM | GI50 (SN12C renal) > 100 µM | GI50 (SK-OV-3 ovarian) > 100 µM | GI50 (SW-620 colon) > 100 µM | GI50 (OVCAR-4 ovarian) > 100 µM | GI50 (SK-MEL-5 melanoma) > 100 µM | GI50 (OVCAR-5 ovarian) > 100 µM | GI50 (HCC-2998 colon) 50.5 µM | GI50 (NCI-H23 lung) > 100 µM | GI50 (SF-539 CNS) > 100 µM | GI50 (UACC-62 melanoma) 72.8 µM | GI50 (HS 578T breast) > 100 µM | GI50 (NCI-H460 lung) > 100 µM | GI50 (HT29 colon) 59.1 µM | GI50 (HCT-116 colon) > 100 µM | GI50 (EKVX NSCLC) > 100 µM | GI50 (LOX IMVI melanoma) > 100 µM | GI50 (HL-60(TB) leukemia) > 100 µM | GI50 (MOLT-4 leukemia) 92 µM | GI50 (SF-295 CNS) > 100 µM | GI50 (TK-10 renal) > 100 µM | GI50 (SNB-75 CNS) 31.2 µM | GI50 (T-47D breast) > 100 µM | GI50 (M14 melanoma) > 100 µM | GI50 (RPMI-8226 leukemia) > 100 µM | GI50 (BT-549 breast) > 100 µM | GI50 (OVCAR-3 ovarian) > 100 µM | GI50 (DU-145 prostate) > 100 µM | GI50 (IGROV1 ovarian) > 100 µM | GI50 (SNB-19 CNS) > 100 µM | GI50 (HCT-15 colon) > 100 µM | GI50 (A498 renal) > 100 µM | GI50 (K-562 leukemia) > 100 µM | GI50 (CAKI-1 renal) > 100 µM | GI50 (MCF7 breast) > 100 µM | GI50 (MDA-MB-435) > 100 µM | GI50 (A549 NSCLC) > 100 µM | GI50 (NCI-H522 lung) 26.5 µM | GI50 (NCI/ADR-RES ovarian) > 100 µM | GI50 (COLO 205 colon) > 100 µM | GI50 (CCRF-CEM leukemia) > 100 µM | GI50 (UO-31 renal) 82.1 µM | GI50 (MDA-N) > 100 µM | GI50 (MALME-3M melanoma) > 100 µM | GI50 (OVCAR-8 ovarian) > 100 µM | GI50 (ACHN renal) > 100 µM | GI50 (SK-MEL-2 melanoma) > 100 µM | GI50 (HOP-62 NSCLC) > 100 µM | GI50 (NCI-H226 lung) > 100 µM
